According to article PMC9035832, “Synthesis and Evaluation of a Non-Peptide Small-Molecule Drug Conjugate Targeting Integrin αVβ3” (Frontiers in Chemistry, 2022):

Columns and labels:
integrin α5β1 = integrin α5β1 (Homo sapiens, UniProt P05556+P08648); assay: ELISA-like competitive integrin binding assay (fibronectin-coated plates); details: read-out: Integrin α5β1 IC50; isolated extracellular domain of human integrin α5β1, ligand fibronectin; Cilengitide as reference on all plates
integrin αVβ3 = integrin αVβ3 (Homo sapiens, UniProt P05106+P06756); assay: ELISA-like competitive integrin binding assay (vitronectin-coated plates); details: read-out: Integrin αVβ3 IC50; isolated extracellular domain of human integrin αVβ3, ligand vitronectin; Cilengitide as reference on all plates

What does the source list for `O=C(N[C@@H](Cc1ccc(OCCCCNc2ncccn2)cc1)C(=O)O)OCc1ccccc1`?
IC50 (integrin α5β1): > 10 µM; IC50 (integrin αVβ3): 8.29 µM
